Sequences of proteins named here, by UniProt entry; tags and fusion partners are left off. A change or cut given only in a name is not applied to a line headed by its entry.
UniProt P08631: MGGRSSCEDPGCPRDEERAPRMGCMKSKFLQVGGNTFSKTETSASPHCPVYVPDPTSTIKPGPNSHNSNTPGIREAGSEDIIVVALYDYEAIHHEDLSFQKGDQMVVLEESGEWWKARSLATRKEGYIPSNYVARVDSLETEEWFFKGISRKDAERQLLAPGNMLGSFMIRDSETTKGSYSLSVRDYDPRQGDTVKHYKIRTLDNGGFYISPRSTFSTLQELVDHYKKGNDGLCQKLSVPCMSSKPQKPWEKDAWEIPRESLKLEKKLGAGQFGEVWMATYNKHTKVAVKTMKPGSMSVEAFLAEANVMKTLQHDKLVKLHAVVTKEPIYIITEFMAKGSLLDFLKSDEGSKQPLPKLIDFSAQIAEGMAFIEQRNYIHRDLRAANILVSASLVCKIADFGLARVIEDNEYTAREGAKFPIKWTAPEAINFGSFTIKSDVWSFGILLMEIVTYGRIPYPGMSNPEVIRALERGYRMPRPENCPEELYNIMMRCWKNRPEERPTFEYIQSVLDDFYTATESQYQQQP

According to patent US9108950B2, “1-pyrazolyl-3-(4-((2-anilinopyrimidin-4-yl)oxy)napththalen-1-yl) ureas as p38 MAP kinase inhibitors” (Respivert Ltd., priority 2011, dated 2015):

Key:
[1] = biological target: HCK (Homo sapiens (Human), UniProt P08631); assay: Kinase competition binding (DiscoverX)
Experimental: (§1) These assays were conducted by DiscoverX (formerly Ambit; San Diego, Calif.).

[2] = biological target: Syk (Homo sapiens (Human), UniProt P43405); assay: Kinase competition binding (DiscoverX)
Experimental: as §1

Q: Which Kd [1] does the source give for `COCC(=O)Nc1cc(Oc2ccc(NC(=O)Nc3cc(C(C)(C)C)nn3-c3ccc(C)cc3)c3ccccc23)ccn1` [Reference Compound, N-(4-(4-(3-(3-tert-butyl-1-p-tolyl-1H-pyrazol-5-yl)ureido)naphthalen-1-yloxy)pyridin-2-yl)-2-methoxyacetamide] here?
A: The Kd was 5 nM.

Q: What about the Kd [2] of the same molecule?
A: Its Kd is 9 nM.
